How the values were obtained:
120 minutes = experiment: PubChem AID 652085; settings: C57Bl6 mouse, 10 mg/kg IP, brain/plasma LC-MS/MS
30 minutes = experiment: PubChem AID 652085; settings: C57Bl6 mouse, 10 mg/kg IP, brain/plasma LC-MS/MS

brain to plasma ratio (120 minutes; stronger effect = higher value): 1.9
brain concentration (120 minutes; mouse brain level): 130 nM
plasma concentration (120 minutes; mouse plasma level): 70 nM
brain to plasma ratio (30 minutes; stronger effect = higher value): 3.4
brain concentration (30 minutes; mouse brain level): 2680 nM
plasma concentration (30 minutes; mouse plasma level): 790 nM
SMILES: COC(=O)c1cc(Br)cnc1N1CCC(NC2CCCCC2)C(O)C1 (stereo unspecified)

Source: PubChem BioAssay AID652085 (The Scripps Research Institute Molecular Screening Center, 2013)
